In patent US20210147508A1 (ACCELERON PHARMA, published 2021) one finds IC50 (pM), inhibition of TGFβ1 (640 pg/mL), CAGA12-luciferase reporter in A549 cells and Kd data, which are given here for 1 substance.

The chains behind the UniProt entries cited, without tags or fusion partners. Residues count along the entry.
UniProt P01137, 279-390 limits assumed: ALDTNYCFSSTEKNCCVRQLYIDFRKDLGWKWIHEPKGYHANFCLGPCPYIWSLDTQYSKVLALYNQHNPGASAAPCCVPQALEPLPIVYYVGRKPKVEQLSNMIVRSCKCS

Like-named read-outs stand apart in the source and are kept apart here.

Test [1] concerns the target TGFβ1 (human) (UniProt P01137). Put plainly: cell-based or functional assay.
Test [2] deals with TGFβ1 (human) (UniProt P01137). As to the kind of experiment: SPR (Biacore), anti-Fc capture. A general note: In SPR one partner is held on a chip, and binding of the other changes the refractive index at the surface.
Test [3] has as its target TGFβ1 (human) (UniProt P01137). As to the kind of experiment: SPR (Biacore), anti-Fc capture. The source holds these as a separate data set.

Broadly, the Kd is the equilibrium constant for the complex coming apart. A low value points to higher affinity. “TGFβRIISHORT-Fc homodimer (from UniProt P37173 23-166) (Fc fusion)” gave an IC50 (pM), inhibition of TGFβ1 (640 pg/mL), CAGA12-luciferase reporter in A549 cells in the test with TGFβ1 (human) [1] of 90 pM. Besides, the Kd in the test with TGFβ1 (human) [2] was found to be 0.025 nM; in the test with TGFβ1 (human) [3] it was 0.02 nM.
